Molecular target: T1, α-Glucosidase (maltase from Saccharomyces cerevisiae) (Saccharomyces cerevisiae, UniProt P53341)
T1 construct: purchased Merck/Sigma-Aldrich
Assay: biochemical
From the text: Chrysanthellin B was purchased from Extrasynthese (Genay, France). 2-(N-morpholino)-ethanesulfonic acid (MES) buffer was purchased from ThermoFisher Scientific (Waltham, Massachusetts, USA). NaN3 was obtained from Carlo Erba Reagents (Val-de-Reuil, France). Pure water was obtained using an Evoqua ultra-pure water production system (Water Technologies, Günzburg, Germany). The RED-NHS protein labeling kit was from NanoTemper Technologies (Munich, Germany).
α-Glucosidase hydrolytic activity was assessed by monitoring the conversion of p-nitrophenyl-α-D-glucopyranoside (PNPg) into p-nitrophenol (PNP). PNP levels were quantified at 405 nm. […] A series of PNP dilutions in buffer was used to generate the standard curve to convert PNP absorbance values into concentrations. The final α-glucosidase concentration corresponded to an activity of 30 µM of PNP/min for negative control without inhibitor. In each microplate well, 20 µL of test products diluted in a 50:50 (v:v) water:ethanol mixture (or 20 µL of this solvent mixture for the negative controls), 20 µL of α-glucosidase in buffer (or 20 µL of buffer for the blanks), and 100 µL of buffer were incubated in a microplate reader at 37 °C for 10 min. […] A FLUO Star Omega (BMG LabTech, Champigny sur Marne, France) 96-well microplate reader, thermostatically controlled at 37 °C, was used to measure the absorbance at 405 nm, every minute for 30 min. […]

By UniProt entry, the sequences of proteins in these tests, tags left out. Where a name states a change or a piece, a line headed by the entry shows the natural chain unless it says otherwise.
UniProt P53341: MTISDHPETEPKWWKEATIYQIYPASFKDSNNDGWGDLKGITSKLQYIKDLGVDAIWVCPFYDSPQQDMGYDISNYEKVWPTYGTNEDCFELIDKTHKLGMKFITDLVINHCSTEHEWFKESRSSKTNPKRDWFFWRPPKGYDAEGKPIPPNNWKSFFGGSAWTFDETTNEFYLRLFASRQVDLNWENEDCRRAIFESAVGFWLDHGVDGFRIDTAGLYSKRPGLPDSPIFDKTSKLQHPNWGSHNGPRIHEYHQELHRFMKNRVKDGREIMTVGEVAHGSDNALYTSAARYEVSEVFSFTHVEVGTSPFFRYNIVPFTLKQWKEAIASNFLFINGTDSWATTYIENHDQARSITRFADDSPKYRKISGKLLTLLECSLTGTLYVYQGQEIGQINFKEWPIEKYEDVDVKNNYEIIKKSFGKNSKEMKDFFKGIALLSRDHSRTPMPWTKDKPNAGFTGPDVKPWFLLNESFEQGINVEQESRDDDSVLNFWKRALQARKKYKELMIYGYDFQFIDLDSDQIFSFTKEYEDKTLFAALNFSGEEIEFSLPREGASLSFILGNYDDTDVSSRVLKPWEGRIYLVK

SMILES: O=C(/C=C/C=C/c1ccc2c(c1)OCO2)N1CCCCC1 [Piperine]
- IC50: 3.15 µM
